Measured values published in ChEMBL document CHEMBL1800071, “Switching reversibility to irreversibility in glycogen synthase kinase 3 inhibitors: clues for specific design of new compounds” (J Med Chem, 2011).

The chains behind the UniProt entries cited, without tags or fusion partners. Where a name states a change or a piece, a line headed by the entry shows the natural chain unless it says otherwise.
UniProt P49841: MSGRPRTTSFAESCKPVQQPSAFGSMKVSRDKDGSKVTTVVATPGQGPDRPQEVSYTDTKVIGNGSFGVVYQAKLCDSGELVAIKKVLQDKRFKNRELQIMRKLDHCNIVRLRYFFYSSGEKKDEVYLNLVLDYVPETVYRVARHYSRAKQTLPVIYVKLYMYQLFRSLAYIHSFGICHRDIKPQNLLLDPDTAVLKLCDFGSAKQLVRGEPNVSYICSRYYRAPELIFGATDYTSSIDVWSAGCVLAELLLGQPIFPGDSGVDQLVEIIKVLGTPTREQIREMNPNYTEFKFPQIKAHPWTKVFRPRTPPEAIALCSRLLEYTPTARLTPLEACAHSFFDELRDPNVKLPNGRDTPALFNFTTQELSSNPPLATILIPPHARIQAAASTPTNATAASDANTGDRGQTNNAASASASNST

Each compound was assayed against Glycogen synthase kinase-3 beta (Homo sapiens, UniProt P49841).

Row | SMILES | IC50 [nM]
1 | O=C(CI)c1ccc(Br)cc1 | 3000
2 | N#Cc1cccc(C(=O)CBr)c1 | 1000
3 | N#Cc1ccc(C(=O)CBr)cc1 | 1500
